Only a part is listed here, and it is no random draw. Some results for these compounds are left out of this collection, so the calls shown say nothing about other tests. Active and inactive are the calls of the source.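 Rule for the calls: active = activation above the mean over all tested compounds plus 3 SD (cut at about 0.9% in these data); inactive = the rest.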

This test relates to Nuclear hormone receptor DAF-12 (Strongyloides stercoralis). In words: ssDAF-12 driven luciferase reporter activation – cell-based, luminescence, HEK293, GRIP1 co-expression, lit1-tk-luc, primary screen (AID 652126).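 Note: 0% = DMSO-only wells and 100% = 3 µM delta7-dafachronic acid wells.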 Particulars: HEK293 ssDAF-12/GRIP1 lit1-tk-luc reporter, at 6.8 µM, active compounds read high, % of 3 µM dafachronic acid response. In general terms: Reporter assays use an easily measured gene product as a stand-in for the process of interest.
Consider `C=C(C)C#CC(O)(C(=O)OC1CCN(C)CC1)c1ccccc1` (stereo unspecified), for which the activation is inactive: -0.63%.

In the case of `COc1ccc(Br)c(C(=O)NCC2(N3CCCCC3)CCCCC2)c1`, the activation is inactive: -2.11%. As for `CC(C)Oc1ccc(C(=O)NCC2(N(C)C)CCCCC2)cc1`, the activation was inactive: -1.12%. With `O=C(OCCN1CCCC1)C(O)(c1ccccc1)c1ccccc1`, the activation was inactive: -0.9%.

For the compound `CN(C)c1cccc(C(=O)NCC2(N(C)C)CCCCC2)c1`, the activation was inactive: -1.27%. Turning to `O=C(OC1CN2CCC1CC2)C(CO)(c1ccccc1)c1ccccc1` (stereo unspecified), the activation is inactive: -0.85%. The result for `COc1cccc(C(=O)NCC2(N3CCCCC3)CCCCC2)c1` reads inactive: -1.61%; that for `COc1ccc(Cl)cc1C(=O)NCC1(N(C)C)CCCCC1`, inactive: -0.81%.

As for `O=C(NCC1(N2CCCCC2)CCCCC1)c1cccc(Cl)c1`, the activation is inactive: -0.77%. Take `CN(C)C1(CNC(=O)c2ccc(Br)cc2)CCCCC1`: the activation is inactive: -0.59%. Turning to `COc1cc(C(=O)NCC2(N(C)C)CCCCC2)c([N+](=O)[O-])cc1OC`, the activation was inactive: -0.49%. With `C=CCN1CCN(CCOC(=O)C(O)(c2ccccc2)c2ccccc2)CC1`, the activation is inactive: -0.7%.

As to `O=C(NCC1(N2CCCCC2)CCCCC1)c1cc(F)c(F)cc1Cl`, the activation is inactive: -1.19%. As for `COc1ccc(C(=O)NCC2(N(C)C)CCCCC2)cc1`, the activation is inactive: -0.59%. The result for `Cc1cc(C(=O)NCC2(N3CCCCC3)CCCCC2)ccc1[N+](=O)[O-]` reads inactive: -0.48%. Take `CCN1CCCC(OC(=O)C2(O)c3ccccc3C=Cc3ccccc32)C1` (stereo unspecified): the activation is inactive: -1.3%.

On to `O=C(NCC1(N2CCCCC2)CCCCC1)c1cccc(Br)c1`, for which the activation is inactive: -0.33%.

As for `Cc1ccccc1C(=O)NCC1(N2CCCCC2)CCCCC1`, the activation was inactive: 0.39%. The result for `CN(C)C1CCCC1OC(=O)C(O)(c1ccccc1)c1ccccc1` (stereo unspecified) reads inactive: -0.57%. For the compound `CN(C)c1ccc(C(=O)NCC2(N(C)C)CCCCC2)cc1`, the activation is inactive: -1.47%. On to `CCN(CC)CC(C)C(C)OC(=O)C(O)(c1ccccc1)c1ccccc1` (stereo unspecified), for which the activation was inactive: -1.26%.

For `COc1cc(SC)ccc1C(=O)NCC1(N(C)C)CCCCC1`, the activation is inactive: -1.02%. As to `CC(C)N1C(=O)CC2(CCN(CCOC(=O)C(O)(c3ccccc3)c3ccccc3)CC2)C1=O`, the activation was inactive: -1.18%. As to `Cc1ccc(C(=O)NCC2(N3CCCCC3)CCCCC2)cc1`, the activation was inactive: -1.21%. In the case of `O=C(NCC1(N2CCCCC2)CCCCC1)c1cc([N+](=O)[O-])ccc1Cl`, the activation is inactive: -0.6%. As for `CN1[C@@H]2CC[C@H]1CC(OC(=O)C(O)(c1ccccc1)c1ccccc1)C2` (stereo partly specified), the activation was inactive: -0.83%.

Values taken from PubChem BioAssay AID652126 (The Scripps Research Institute Molecular Screening Center, 2013).
